Assay [1] addresses EGFR D19TMCS (del19/T790M/C797S) (Homo sapiens, UniProt P00533, C797S/DEL746-750/T790M). Briefly: Biochemical EGFR kinase assay (Lance Ultra TR-FRET), triple mutant del19/T790M/C797S.
The target in assay [2] is EGFR LRTMCS (L858R/T790M/C797S) (Homo sapiens, UniProt P00533, C797S/L858R/T790M). Description: Biochemical EGFR kinase assay (Lance Ultra TR-FRET), triple mutant L858R/T790M/C797S.
For a further assay, the target named is EGFR D19CS (del19/C797S) (Homo sapiens, UniProt P00533, C797S/DEL746-750). Briefly: Biochemical EGFR kinase assay (Lance Ultra TR-FRET), double mutant del19/C797S.
The target of a further assay is EGFR LRCS (L858R/C797S) (Homo sapiens, UniProt P00533, C797S/L858R). Briefly: Biochemical EGFR kinase assay (Lance Ultra TR-FRET), double mutant L858R/C797S.
Another assay concerns the target EGFR WT (Homo sapiens, UniProt P00533). Briefly: Biochemical EGFR kinase assay (Lance Ultra TR-FRET), wildtype.
Where [3] appears, read: read-out: EGFR D19TMCS IC50, ATP 1 mM.
Setting [4] is: read-out: EGFR D19TMCS IC50, ATP Km.
Setting [5] is: read-out: EGFR LRTMCS IC50, ATP 1 mM.
The mark [6] stands for this setting: read-out: EGFR LRTMCS IC50, ATP Km.
Where [7] appears, read: read-out: EGFR D19CS IC50, ATP 1 mM.
The mark [8] stands for this setting: read-out: EGFR D19CS IC50, ATP Km.
Setting [9] is: read-out: EGFR LRCS IC50, ATP 1 mM.
[10] abbreviates: read-out: EGFR LRCS IC50, ATP Km.
[11] abbreviates: read-out: EGFR WT IC50, ATP 1 mM.
Where [12] appears, read: read-out: IC50, EGFR D19TMCS, Km, ATP at Km, EGFR del19/T790M/C797S.
[13] abbreviates: read-out: IC50, EGFR LRTMCS, 1 mM, ATP 1 mM, EGFR L858R/T790M/C797S.
Where [14] appears, read: read-out: IC50, EGFR LRTMCS, Km, ATP at Km, EGFR L858R/T790M/C797S.
Where [15] appears, read: read-out: IC50, EGFR-D19CS, 1 mM, ATP 1 mM, EGFR del19/C797S.
The mark [16] stands for this setting: read-out: IC50, EGFR-D19CS, Km, ATP at Km, EGFR del19/C797S.
The mark [17] stands for this setting: read-out: IC50, EGFR-LRCS, 1 mM, ATP 1 mM, EGFR L858R/C797S.
Where [18] appears, read: read-out: IC50, EGFR-LRCS, Km, ATP at Km, EGFR L858R/C797S.
[19] abbreviates: read-out: IC50, EGFR WT, 1 mM, ATP 1 mM, EGFR wildtype.
Setting [20] is: read-out: IC50, EGFR WT, Km, ATP at Km, EGFR wildtype.

The chains behind the UniProt entries cited, without tags or fusion partners. Where a name states a change or a piece, a line headed by the entry shows the natural chain unless it says otherwise. A line that says so, or that is headed by a name, gives the form on record, which may keep a tag or linker. Residues count along the entry.
UniProt P00533, 25-1210 limits assumed: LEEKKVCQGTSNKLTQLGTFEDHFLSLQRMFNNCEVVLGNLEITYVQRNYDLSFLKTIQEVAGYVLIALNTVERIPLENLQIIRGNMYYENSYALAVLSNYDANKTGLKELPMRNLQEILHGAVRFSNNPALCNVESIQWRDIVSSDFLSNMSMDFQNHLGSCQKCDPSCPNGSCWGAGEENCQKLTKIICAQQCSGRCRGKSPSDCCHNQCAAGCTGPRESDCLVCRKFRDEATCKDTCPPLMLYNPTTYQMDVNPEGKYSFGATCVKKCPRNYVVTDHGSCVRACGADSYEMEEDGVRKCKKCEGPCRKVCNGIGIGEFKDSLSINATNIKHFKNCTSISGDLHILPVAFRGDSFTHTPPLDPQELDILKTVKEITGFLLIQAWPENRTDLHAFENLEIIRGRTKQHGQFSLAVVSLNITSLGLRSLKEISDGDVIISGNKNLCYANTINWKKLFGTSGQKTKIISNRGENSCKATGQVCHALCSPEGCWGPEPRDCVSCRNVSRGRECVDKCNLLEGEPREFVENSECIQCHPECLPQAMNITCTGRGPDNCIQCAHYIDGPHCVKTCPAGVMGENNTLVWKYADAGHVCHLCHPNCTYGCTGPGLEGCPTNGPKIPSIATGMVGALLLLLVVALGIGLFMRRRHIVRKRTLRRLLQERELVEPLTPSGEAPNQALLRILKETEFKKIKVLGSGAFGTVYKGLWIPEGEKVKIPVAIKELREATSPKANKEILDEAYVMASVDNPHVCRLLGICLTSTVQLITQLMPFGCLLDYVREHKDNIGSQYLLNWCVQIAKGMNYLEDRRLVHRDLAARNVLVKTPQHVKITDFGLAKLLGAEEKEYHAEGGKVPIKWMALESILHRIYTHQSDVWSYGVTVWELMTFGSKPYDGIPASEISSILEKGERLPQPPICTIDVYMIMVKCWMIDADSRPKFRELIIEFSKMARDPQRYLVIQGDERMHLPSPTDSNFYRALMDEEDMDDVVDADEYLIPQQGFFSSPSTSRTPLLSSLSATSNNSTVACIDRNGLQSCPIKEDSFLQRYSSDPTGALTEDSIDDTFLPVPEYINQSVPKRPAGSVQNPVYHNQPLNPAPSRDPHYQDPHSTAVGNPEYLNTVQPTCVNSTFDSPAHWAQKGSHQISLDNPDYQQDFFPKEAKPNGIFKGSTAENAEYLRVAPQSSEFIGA
UniProt P00533, 25-1210 C797S/L858R limits assumed: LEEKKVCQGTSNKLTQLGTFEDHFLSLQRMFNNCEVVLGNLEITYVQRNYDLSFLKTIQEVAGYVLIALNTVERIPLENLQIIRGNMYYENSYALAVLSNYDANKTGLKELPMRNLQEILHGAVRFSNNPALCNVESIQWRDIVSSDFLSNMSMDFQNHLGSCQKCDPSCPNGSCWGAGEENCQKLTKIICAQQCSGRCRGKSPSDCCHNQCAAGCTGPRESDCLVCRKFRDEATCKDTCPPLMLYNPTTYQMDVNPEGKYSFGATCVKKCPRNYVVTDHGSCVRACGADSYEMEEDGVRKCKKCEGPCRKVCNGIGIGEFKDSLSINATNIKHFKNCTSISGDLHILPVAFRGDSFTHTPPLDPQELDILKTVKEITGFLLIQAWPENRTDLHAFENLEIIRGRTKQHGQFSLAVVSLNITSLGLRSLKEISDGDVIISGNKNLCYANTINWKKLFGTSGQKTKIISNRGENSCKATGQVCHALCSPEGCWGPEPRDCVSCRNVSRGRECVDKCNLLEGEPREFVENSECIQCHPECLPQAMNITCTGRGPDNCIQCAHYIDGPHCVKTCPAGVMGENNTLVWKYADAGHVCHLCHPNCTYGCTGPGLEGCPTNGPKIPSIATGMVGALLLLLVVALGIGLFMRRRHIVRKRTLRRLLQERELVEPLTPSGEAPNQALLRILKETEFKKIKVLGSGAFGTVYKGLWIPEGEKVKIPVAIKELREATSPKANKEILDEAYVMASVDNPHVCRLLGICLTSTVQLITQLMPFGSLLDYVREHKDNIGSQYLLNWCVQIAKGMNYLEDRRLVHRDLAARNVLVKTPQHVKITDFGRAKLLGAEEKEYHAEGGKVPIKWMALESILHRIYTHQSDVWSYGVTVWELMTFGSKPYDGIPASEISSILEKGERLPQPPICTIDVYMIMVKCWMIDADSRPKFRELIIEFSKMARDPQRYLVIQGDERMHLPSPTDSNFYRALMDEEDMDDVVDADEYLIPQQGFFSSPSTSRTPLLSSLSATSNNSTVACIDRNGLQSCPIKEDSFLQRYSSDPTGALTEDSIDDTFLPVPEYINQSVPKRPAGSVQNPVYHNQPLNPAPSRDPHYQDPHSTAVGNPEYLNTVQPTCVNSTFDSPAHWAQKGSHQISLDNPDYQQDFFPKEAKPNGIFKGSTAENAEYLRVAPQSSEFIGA
UniProt P00533, 25-1210 T790M/C797S/L858R limits assumed: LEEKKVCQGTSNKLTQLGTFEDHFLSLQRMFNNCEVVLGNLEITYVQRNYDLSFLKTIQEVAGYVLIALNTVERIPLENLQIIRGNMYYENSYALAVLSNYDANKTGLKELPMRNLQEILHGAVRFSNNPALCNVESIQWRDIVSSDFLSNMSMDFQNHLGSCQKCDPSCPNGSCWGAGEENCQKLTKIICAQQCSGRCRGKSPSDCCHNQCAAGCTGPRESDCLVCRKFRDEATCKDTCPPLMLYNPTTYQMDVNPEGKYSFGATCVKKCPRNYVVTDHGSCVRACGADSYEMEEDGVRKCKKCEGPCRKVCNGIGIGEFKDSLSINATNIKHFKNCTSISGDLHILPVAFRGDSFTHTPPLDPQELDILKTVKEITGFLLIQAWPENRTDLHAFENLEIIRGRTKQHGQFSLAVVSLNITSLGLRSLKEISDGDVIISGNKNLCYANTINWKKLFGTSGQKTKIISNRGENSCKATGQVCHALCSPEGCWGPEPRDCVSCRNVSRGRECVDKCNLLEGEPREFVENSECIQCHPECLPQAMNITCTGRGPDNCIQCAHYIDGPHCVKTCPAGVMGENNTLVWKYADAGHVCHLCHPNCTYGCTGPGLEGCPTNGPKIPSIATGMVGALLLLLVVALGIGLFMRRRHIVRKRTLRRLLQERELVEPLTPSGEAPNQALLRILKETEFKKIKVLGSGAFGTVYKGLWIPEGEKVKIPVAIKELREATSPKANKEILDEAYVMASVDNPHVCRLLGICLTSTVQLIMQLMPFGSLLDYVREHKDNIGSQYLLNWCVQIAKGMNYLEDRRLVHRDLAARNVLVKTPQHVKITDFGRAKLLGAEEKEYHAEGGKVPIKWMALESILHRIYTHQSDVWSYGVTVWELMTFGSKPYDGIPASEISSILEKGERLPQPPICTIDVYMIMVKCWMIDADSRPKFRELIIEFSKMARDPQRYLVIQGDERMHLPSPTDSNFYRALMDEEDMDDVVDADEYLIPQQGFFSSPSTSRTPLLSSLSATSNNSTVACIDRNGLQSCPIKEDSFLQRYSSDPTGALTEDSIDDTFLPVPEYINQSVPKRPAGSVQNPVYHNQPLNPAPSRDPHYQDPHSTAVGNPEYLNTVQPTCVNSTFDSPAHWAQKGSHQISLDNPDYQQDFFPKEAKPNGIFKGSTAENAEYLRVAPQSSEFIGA
UniProt P00533, with tags, fused parts or gaps DEL746-750/C797S limits assumed: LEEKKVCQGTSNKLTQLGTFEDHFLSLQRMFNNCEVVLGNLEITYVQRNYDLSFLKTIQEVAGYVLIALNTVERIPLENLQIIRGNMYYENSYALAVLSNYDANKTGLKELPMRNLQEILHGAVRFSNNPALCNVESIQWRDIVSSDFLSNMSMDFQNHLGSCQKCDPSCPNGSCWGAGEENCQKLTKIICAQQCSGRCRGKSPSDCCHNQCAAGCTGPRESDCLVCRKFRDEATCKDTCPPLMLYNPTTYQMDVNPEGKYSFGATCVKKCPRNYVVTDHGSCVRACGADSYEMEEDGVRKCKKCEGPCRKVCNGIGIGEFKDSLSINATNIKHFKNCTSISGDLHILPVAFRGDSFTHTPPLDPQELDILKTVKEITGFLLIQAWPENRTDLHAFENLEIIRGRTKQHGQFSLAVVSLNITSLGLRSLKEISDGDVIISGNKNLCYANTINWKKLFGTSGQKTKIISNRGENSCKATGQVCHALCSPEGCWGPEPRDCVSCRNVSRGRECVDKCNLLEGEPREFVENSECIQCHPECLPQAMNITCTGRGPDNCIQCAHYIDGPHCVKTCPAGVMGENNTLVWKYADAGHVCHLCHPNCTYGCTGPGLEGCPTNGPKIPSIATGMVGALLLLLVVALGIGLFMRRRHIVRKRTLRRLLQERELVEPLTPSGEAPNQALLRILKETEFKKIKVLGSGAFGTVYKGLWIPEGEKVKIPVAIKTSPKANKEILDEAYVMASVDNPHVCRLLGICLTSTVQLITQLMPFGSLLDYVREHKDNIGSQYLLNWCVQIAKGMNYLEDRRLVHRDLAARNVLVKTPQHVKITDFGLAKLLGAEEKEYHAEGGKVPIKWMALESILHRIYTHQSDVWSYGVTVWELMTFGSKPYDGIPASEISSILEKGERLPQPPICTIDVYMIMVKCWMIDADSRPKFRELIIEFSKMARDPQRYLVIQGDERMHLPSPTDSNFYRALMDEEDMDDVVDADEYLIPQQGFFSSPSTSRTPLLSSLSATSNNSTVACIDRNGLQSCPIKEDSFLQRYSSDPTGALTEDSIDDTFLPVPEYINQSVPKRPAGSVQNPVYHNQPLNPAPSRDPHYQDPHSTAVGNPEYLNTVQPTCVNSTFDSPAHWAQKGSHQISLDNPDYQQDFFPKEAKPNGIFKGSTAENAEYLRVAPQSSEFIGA
UniProt P00533, with tags, fused parts or gaps DEL746-750/T790M/C797S limits assumed: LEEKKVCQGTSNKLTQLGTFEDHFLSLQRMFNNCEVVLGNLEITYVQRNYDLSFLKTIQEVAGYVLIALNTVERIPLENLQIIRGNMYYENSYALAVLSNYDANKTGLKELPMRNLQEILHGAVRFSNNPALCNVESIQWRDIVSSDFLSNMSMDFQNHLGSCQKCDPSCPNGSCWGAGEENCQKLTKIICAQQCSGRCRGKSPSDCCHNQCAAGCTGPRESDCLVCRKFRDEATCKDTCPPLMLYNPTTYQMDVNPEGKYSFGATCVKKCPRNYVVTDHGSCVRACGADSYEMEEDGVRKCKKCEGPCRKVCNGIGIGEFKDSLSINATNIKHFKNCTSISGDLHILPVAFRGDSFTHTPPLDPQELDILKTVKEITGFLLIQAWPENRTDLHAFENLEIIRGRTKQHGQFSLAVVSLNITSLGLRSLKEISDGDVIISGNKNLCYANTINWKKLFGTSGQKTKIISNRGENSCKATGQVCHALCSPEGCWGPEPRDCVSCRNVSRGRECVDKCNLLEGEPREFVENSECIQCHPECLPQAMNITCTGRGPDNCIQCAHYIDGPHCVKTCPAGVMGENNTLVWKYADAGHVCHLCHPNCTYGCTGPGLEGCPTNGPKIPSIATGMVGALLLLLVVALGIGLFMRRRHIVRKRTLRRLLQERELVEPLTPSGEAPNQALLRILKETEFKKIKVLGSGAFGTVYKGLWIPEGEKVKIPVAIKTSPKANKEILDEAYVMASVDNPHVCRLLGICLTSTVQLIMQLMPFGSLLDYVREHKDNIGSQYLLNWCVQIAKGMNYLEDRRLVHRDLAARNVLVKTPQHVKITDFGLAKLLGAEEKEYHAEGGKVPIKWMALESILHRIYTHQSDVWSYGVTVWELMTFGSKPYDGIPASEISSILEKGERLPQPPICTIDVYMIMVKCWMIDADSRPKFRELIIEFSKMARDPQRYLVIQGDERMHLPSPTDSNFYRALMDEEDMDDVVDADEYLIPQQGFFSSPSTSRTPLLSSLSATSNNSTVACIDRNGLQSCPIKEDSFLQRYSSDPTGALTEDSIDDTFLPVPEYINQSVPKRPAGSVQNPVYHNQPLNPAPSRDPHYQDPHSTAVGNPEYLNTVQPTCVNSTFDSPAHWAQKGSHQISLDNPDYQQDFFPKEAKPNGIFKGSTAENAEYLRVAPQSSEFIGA

Among the data in patent US20260384450A1, “MACROCYCLIC AMINOPYRIDINE COMPOUNDS AS EGFR INHIBITORS” (published 2026) are IC50 values, retold here.

The structures appear in SMILES notation. Where two headings read alike, the source gives them in different places. A value given as a limit tells only on which side of the number the result lay.

Take `Cc1nn(C)c2c1-c1nccc(n1)Nc1cc(c(-c3ccc(OC(F)F)cn3)cn1)N[C@@H](C)CCO2`: the 50% inhibitory concentration (IC50) in assay [1] (setting [3]) was less than 10 nM; in assay [1] (setting [4]), less than 10 nM; in assay [2] (setting [5]), less than 10 nM; in assay [2] (setting [6]), less than 10 nM; on EGFR D19CS (del19/C797S) (setting [7]), 10 to 100 nM; at EGFR D19CS (del19/C797S) (setting [8]) it was less than 10 nM. Moreover, the IC50 on EGFR LRCS (L858R/C797S) (setting [9]) was 10 to 100 nM; at EGFR LRCS (L858R/C797S) (setting [10]), less than 10 nM; on EGFR WT (setting [11]), greater than 1000 nM; on EGFR WT (read-out: EGFR WT IC50, ATP Km), 10 to 100 nM.
Turning to `Cc1nn(C)c2c1-c1nccc(n1)Nc1cc(c(-c3ncc(S(C)(=O)=O)cc3F)cn1)NCC[C@H](C)O2`, the half-maximal inhibitory concentration (IC50) is greater than 1000 nM in assay [1] (setting [3]); 100 to 1000 nM in assay [1] (setting [4]); 100 to 1000 nM in assay [2] (setting [5]); 10 to 100 nM in assay [2] (setting [6]); greater than 1000 nM on EGFR D19CS (del19/C797S) (setting [7]); greater than 1000 nM on EGFR D19CS (del19/C797S) (setting [8]). Further, the 50% inhibitory concentration (IC50) was greater than 1000 nM at EGFR LRCS (L858R/C797S) (setting [9]); 100 to 1000 nM on EGFR LRCS (L858R/C797S) (setting [10]); greater than 1000 nM at EGFR WT (setting [11]); greater than 1000 nM on EGFR WT (read-out: EGFR WT IC50, ATP Km).
In the case of `Cc1nn(C)c2c1-c1nccc(n1)Nc1cc(c(-c3cc(C(C)(C)O)ccn3)cn1)NCC[C@H](C)O2`, the 50% inhibitory concentration (IC50) in assay [1] (setting [12]) is less than 10 nM; in assay [2] (setting [13]), 10 to 100 nM; in assay [2] (setting [14]) it was less than 10 nM; on EGFR D19CS (del19/C797S) (setting [15]), 10 to 100 nM; at EGFR D19CS (del19/C797S) (setting [16]), less than 10 nM; at EGFR LRCS (L858R/C797S) (setting [17]), 10 to 100 nM. In addition, the half-maximal inhibitory concentration (IC50) on EGFR LRCS (L858R/C797S) (setting [18]) is less than 10 nM; on EGFR WT (setting [19]), greater than 1000 nM; at EGFR WT (setting [20]) it was 10 to 100 nM.
For `C[C@H]1CCOc2c(cnn2C)-c2nccc(n2)Nc2cc(c(-c3ncccc3OCC(F)(F)F)cn2)N1`, the half-inhibitory concentration (IC50) was 100 to 1000 nM in assay [1] (setting [3]); 10 to 100 nM in assay [1] (setting [4]); 100 to 1000 nM in assay [2] (setting [5]); 10 to 100 nM in assay [2] (setting [6]); greater than 1000 nM at EGFR D19CS (del19/C797S) (setting [7]); greater than 1000 nM at EGFR D19CS (del19/C797S) (setting [8]). Moreover, the concentration for half-maximal inhibition (IC50) is greater than 1000 nM on EGFR LRCS (L858R/C797S) (setting [9]); 100 to 1000 nM on EGFR LRCS (L858R/C797S) (setting [10]); greater than 1000 nM on EGFR WT (setting [11]); greater than 1000 nM on EGFR WT (read-out: EGFR WT IC50, ATP Km).
On to `Cc1nn(C)c2c1-c1nccc(n1)Nc1cc(c(-c3ncc(CN4C[C@@H](CS(C)(=O)=O)[C@H]4C)cc3F)cn1)N[C@@H](C)CCO2`, for which the IC50 is less than 10 nM in assay [1] (setting [12]); less than 10 nM in assay [2] (setting [13]); less than 10 nM in assay [2] (setting [14]); 10 to 100 nM at EGFR D19CS (del19/C797S) (setting [15]); less than 10 nM on EGFR D19CS (del19/C797S) (setting [16]); 10 to 100 nM at EGFR LRCS (L858R/C797S) (setting [17]). Further, the IC50 was less than 10 nM at EGFR LRCS (L858R/C797S) (setting [18]), greater than 1000 nM at EGFR WT (setting [19]) and 10 to 100 nM at EGFR WT (setting [20]).
As for `C[C@@H]1CCOc2c(cnn2C)-c2nccc(n2)Nc2cc(c(-c3ccn(CC(F)(F)F)n3)cn2)N1`, the concentration for half-maximal inhibition (IC50) was 100 to 1000 nM in assay [1] (setting [3]); 10 to 100 nM in assay [1] (setting [4]); greater than 1000 nM in assay [2] (setting [5]); 10 to 100 nM in assay [2] (setting [6]); greater than 1000 nM on EGFR D19CS (del19/C797S) (setting [7]); greater than 1000 nM on EGFR D19CS (del19/C797S) (setting [8]). Moreover, the half-maximal inhibitory concentration (IC50) is greater than 1000 nM on EGFR LRCS (L858R/C797S) (setting [9]); greater than 1000 nM at EGFR LRCS (L858R/C797S) (setting [10]); greater than 1000 nM at EGFR WT (setting [11]); greater than 1000 nM at EGFR WT (read-out: EGFR WT IC50, ATP Km).
`Cc1nn(C)c2c1-c1nccc(n1)Nc1cc(c(-c3ccc(C(C)(C)F)cn3)cn1)NCC[C@H](C)O2`: the 50% inhibitory concentration (IC50) in assay [1] (setting [12]) was less than 10 nM; in assay [2] (setting [13]), less than 10 nM; in assay [2] (setting [14]) it was less than 10 nM; at EGFR D19CS (del19/C797S) (setting [15]), 10 to 100 nM; at EGFR D19CS (del19/C797S) (setting [16]), less than 10 nM; on EGFR LRCS (L858R/C797S) (setting [17]) it was 10 to 100 nM. Further, the IC50 at EGFR LRCS (L858R/C797S) (setting [18]) was less than 10 nM; on EGFR WT (setting [19]), greater than 1000 nM; at EGFR WT (setting [20]) it was 10 to 100 nM.
As to `Cc1nn(C)c2c1-c1nccc(n1)Nc1cc(c(-c3ncc(CN4CC[C@H](O)C4)cc3F)cn1)N[C@@H](C)CCO2`, the IC50 was less than 10 nM in assay [1] (setting [3]); less than 10 nM in assay [1] (setting [4]); less than 10 nM in assay [2] (setting [5]); less than 10 nM in assay [2] (setting [6]); 10 to 100 nM at EGFR D19CS (del19/C797S) (setting [7]); less than 10 nM at EGFR D19CS (del19/C797S) (setting [8]). The half-maximal inhibitory concentration (IC50) was 10 to 100 nM on EGFR LRCS (L858R/C797S) (setting [9]); less than 10 nM on EGFR LRCS (L858R/C797S) (setting [10]); greater than 1000 nM at EGFR WT (setting [11]); 10 to 100 nM on EGFR WT (read-out: EGFR WT IC50, ATP Km).
With `Cn1ncc2c1OCCCNc1cc(ncc1-c1ccn(CC(F)(F)F)n1)Nc1ccnc-2n1`, the concentration for half-maximal inhibition (IC50) in assay [1] (setting [3]) is 10 to 100 nM; in assay [1] (setting [4]), less than 10 nM; in assay [2] (setting [5]) it was 10 to 100 nM; in assay [2] (setting [6]) it was less than 10 nM; at EGFR D19CS (del19/C797S) (setting [7]), greater than 1000 nM; at EGFR D19CS (del19/C797S) (setting [8]), greater than 1000 nM. Also, the IC50 at EGFR LRCS (L858R/C797S) (setting [9]) is greater than 1000 nM; on EGFR LRCS (L858R/C797S) (setting [10]), 100 to 1000 nM; on EGFR WT (setting [11]) it was greater than 1000 nM; at EGFR WT (read-out: EGFR WT IC50, ATP Km), 100 to 1000 nM.
